Screens as filed in PubChem.
Shown are actives, neighbours in structure and some others; about 2.2% of the full set was active somewhere.
miR-21 reporter: raises the signal of a miR-21 reporter | HeLa miR-21 FLuc reporter, luciferase, 48 h | Potency, µM (doses to about 38.3 µM), for the others: at the highest dose reporter change, positive = more light | 340,000 tested, under 10 active | AID 2288; active = well fitted rising curve with a large enough effect; inconclusive = small, poorly fitted or top-dose-only effect; inactive = no such curve, though single readings can be large or run the other way;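 also: % of control where 0% means no effect; miR-21 action dims this reporter so a rising signal means less miR-21 action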
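Luminescence from a firefly luciferase reporter carrying a miR-21 binding site downstream, stably expressed under a CMV promoter in HeLa cells that make miR-21 endogenously, reports miRNA modulation after 48 h compound exposure up to approximately 40uM final.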
GALK inh: galactokinase (human) inhibition; Purified GALK, Kinase-Glo residual ATP luminescence; actives 0.007% (n = 270,000); Potency, µM (series often up to 57.5 µM), for the others: at the highest dose activity change, negative = inhibition, usual class: inhibitors; P51570; note: potency is the fitted concentration of half-maximal effect; % is set by controls: 0 for no effect and ±100 for the full control effect
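Human GALK (5 nM) with 35 uM ATP and 100 uM galactose in 20 mM HEPES pH 8.0, 5 mM MgCl2, 60 mM NaCl, 1 mM DTT, 0.01% BSA. After 1 h at room temperature, leftover ATP was read by Kinase-Glo Plus luminescence.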
Nrf2 activator: activates Nrf2 signaling. AREc32 ARE-luciferase reporter (MCF7-derived line), luminescence, 24 h. Potency, µM (titrated, usually from 46.1 µM), inactives show at the top dose activation, most hits filed as activators. actives 0.31% (n = 410,000). AID 624171; note: potency is the fitted concentration of half-maximal effect; % of control where 0% means no effect; nearly all actives have a fitted effect of over 65% in size
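Steps: seed AREc32_Fluc cells (1000/well, 5% FBS OPTI-MEM); incubate overnight at 37 deg C; add 23 nL compound; incubate 24 hr; add Steady-Glo; hold 30 min RT; read luminescence.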
Nrf2 inh: inhibitors of Nrf2 signaling; A549 ARE-Fluc reporter, luciferase luminescence, 18-24 h; Potency, µM (titrated, usually from 46 µM), for inactives: at the highest dose activity change, negative = inhibition, actives largely listed as inhibitors; actives 2.1% (n = 360,000); AID 504444; note: potency is the fitted concentration of half-maximal effect; % is set by controls: 0 for no effect and ±100 for the full control effect; nearly all actives have a fitted effect of over 60% in size
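Cells were seeded and rested 2 h, then exposed to compounds for 18-24 h. CellTiter-Fluor was read first as a viability measure. BugLite was added 15 min before the final luminescent read of ARE-luciferase activity in A549 cells.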
PI4K2A block: blocks human PI4K2A kinase activity. Q9BTU6. purified PI4K2A, ADP-Glo luminescence, 1 h; hits give low values. activity change, negative = inhibition, % at 76.9 µM. actives 0.13% (n = 420,000). AID 1346378; in the data active = activity change below about -50%; inconclusive = mostly about -30% to -49%;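 note: -100% = wells without enzyme as full effect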
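Compounds are screened against recombinant PI4K2A using PI as substrate and ATP, the latter dispensed at 300 microM. Reactions run one hour at ambient temperature before ADP-Glo detection; full inhibition defined by wells lacking enzyme.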
A549 tox: kills or reduces viability of A549 cells in Nrf2 counter-screen; A549 ARE-Fluc cells, CellTiter-Fluor viability, 18-24 h; Potency, µM (top dose mostly 46 µM), without a hit: at the highest dose activity change, negative = cytotoxicity, hits mostly inhibitors; actives 0.16% (n = 390,000); AID 504648; note: potency is the fitted concentration of half-maximal effect; % is set by controls: 0 for no effect and ±100 for the full control effect
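A549 ARE-Fluc cells in 5% FBS OPTI-MEM, 5000 cells/well, rested 2 h then exposed to compounds in concentration-response for 18-24 h at 37 °C. Viability by CellTiter-Fluor fluorescence (Ex 405/Em 525) after 30 min; luciferase luminescence (BugLite, 15 min, RT) read afterwards.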
* marks the source's active call; other numbers are inactive results; ? = inconclusive; nt = not tested or not shown. Unless noted, calls come from the whole dose curve; as a rule, active = well fitted curve in the direction sought with a large enough effect; inconclusive = small, poorly fitted or top-dose-only effect, or another doubt; inactive = no such curve, though single readings can be large; an effect the other way counts as inactive or inconclusive.

(1) CCOC(=O)c1ccc(N2C(=O)c3[nH]nc(-c4ccc(C)cc4)c3C2c2ccc(O)cc2)cc1 (stereo unspecified)
(2) CCCCN(CCCN)c1ccc(Br)cn1
(3) O=C(CNC(=O)c1ccc2ccccc2c1)OC(C(=O)Nc1cc(C(F)(F)F)ccc1Cl)c1ccccc1 (stereo unspecified)
(4) Cc1ccc2occ(C(=O)c3ccco3)c(=O)c2c1
(5) Cc1ccc(-c2cc(C(=O)NN=Cc3ccc(-c4ccccc4)cc3)[nH]n2)cc1
(6) CC12CCC(O)CC1=CCC1C2CCC2(C)C(c3ccn[nH]3)CCC12 (stereo unspecified)
(7) CC(C)C(=O)N[C@H]1CCC2C3CC=C4C[C@@H](O)CC[C@]4(C)C3CC[C@@]21C (stereo partly specified)
(8) COc1ccc(N2CCN(C(=S)Nc3cccc(C)c3C)CC2)cc1

Assay by compound | 1 | 2 | 3 | 4 | 5 | 6 | 7 | 8
miR-21 reporter | ? | nt | nt | -32% | nt | nt | nt | 0%
GALK inh | nt | nt | nt | 1% | nt | nt | nt | -2%
Nrf2 activator | -2% | nt | nt | 13µM* | nt | 3% | 0% | 0%
Nrf2 inh | 21µM* | 3% | 3% | 20% | nt | 21µM* | -8% | 26µM*
PI4K2A block | -1 | nt | nt | 1 | 4 | -5 | -1 | 2
A549 tox | -25% | 4% | 10% | -3% | nt | -8% | 3% | ?

Values by screen from above:
A549 tox, entries 1 to 8, in order: -25%, 4%, 10%, -3%, nt, -8%, 3%, ?
Nrf2 activator, entries 1 to 8, in order: -2%, nt, nt, 13µM*, nt, 3%, 0%, 0%

Going on with the list:
(9) CC(=O)N1CCc2cc(S(=O)(=O)C(C)CC(=O)Nc3ccc(OC(F)(F)F)cc3)ccc21 (stereo unspecified)
(10) CC(=O)N1c2ccc(S(=O)(=O)NCCC(=O)Nc3ccc(OC(F)(F)F)cc3)cc2CC1C (stereo unspecified)
(11) CC(=O)N1c2ccc(S(=O)(=O)NCCC(=O)NCCc3cccc(C)c3)cc2CC1C (stereo unspecified)
(12) CC(=O)N1CCCc2cc(S(=O)(=O)Nc3ccc(OC(F)(F)F)cc3)ccc21
(13) CC(=O)N1c2ccc(S(=O)(=O)NCCC(=O)NCCc3ccc(C)cc3)cc2CC1C (stereo unspecified)
(14) CC(=O)N1c2ccc(S(=O)(=O)NCCC(=O)NCCc3ccc(Cl)cc3)cc2CC1C (stereo unspecified)
(15) CC(=O)N1c2ccc(S(=O)(=O)NCCc3ccc(Cl)cc3)cc2CC1C (stereo unspecified)
(16) CC(=O)N1c2ccc(S(=O)(=O)NCCC(=O)Nc3ccc(Cl)cc3)cc2CC1C (stereo unspecified)

Assay by compound | 9 | 10 | 11 | 12 | 13 | 14 | 15 | 16
miR-21 reporter | -10% | 14% | 9% | 0% | 16% | 19% | -3% | nt
GALK inh | -1% | 10% | 4% | nt | 10% | -2% | -2% | nt
Nrf2 activator | -1% | 2% | -1% | 6% | 0% | 0% | 2% | 2%
Nrf2 inh | 12µM* | 18µM* | ? | nt | 16µM* | 21µM* | -3% | nt
PI4K2A block | -3 | 4 | 4 | -1 | -2 | 8 | 4 | 2
A549 tox | -8% | -7% | -5% | -14% | -8% | -8% | -7% | nt

(17) CCCCNC(=S)NCCCc1cnc[nH]1
(18) C=CCNC(=O)CN(C(=O)c1csc2ccc(Cl)cc12)c1cccc(Br)c1
(19) O=C(NCCc1ccc(F)cc1)c1ccc2c(c1)ncn2C1CCCCC1
(20) Cn1c2cc(Br)sc2c2cnn(Cc3ccccc3F)c(=O)c21
(21) CCC(O)CNC(=O)NC(=C(Cl)Cl)c1ccc(C)c(F)c1 (stereo unspecified)
(22) COc1cccc(C2c3c(ncn(-c4ccccc4Cl)c3=N)Oc3ccc4ccccc4c32)c1 (stereo unspecified)
(23) Cc1cccc(C)c1N=C1C(=O)Nc2ccccc21
(24) CCC1(c2ccccc2)SCC(c2ccccc2)=NC1=O (stereo unspecified)
(25) CCC1(c2ccccc2)SC(N)=NC1=O (stereo unspecified)

Assay by compound | 17 | 18 | 19 | 20 | 21 | 22 | 23 | 24 | 25
miR-21 reporter | nt | nt | nt | nt | 16% | nt | -2% | nt | nt
GALK inh | nt | nt | nt | nt | -1% | nt | -1% | nt | nt
Nrf2 activator | nt | nt | nt | nt | ? | nt | -1% | 0% | 0%
Nrf2 inh | 8% | nt | nt | 3% | 18µM* | -18% | 18µM* | 18µM* | 0%
PI4K2A block | nt | -4 | -1 | nt | 4 | nt | 5 | 2 | 0
A549 tox | 24% | nt | nt | -3% | -14% | 18% | -17% | -2% | 1%

Molecules listed so far containing a thiophene ring, fused or not:
(18) C=CCNC(=O)CN(C(=O)c1csc2ccc(Cl)cc12)c1cccc(Br)c1
(20) Cn1c2cc(Br)sc2c2cnn(Cc3ccccc3F)c(=O)c21

Assay by compound | 18 | 20
miR-21 reporter | nt | nt
GALK inh | nt | nt
Nrf2 activator | nt | nt
Nrf2 inh | nt | 3%
PI4K2A block | -4 | nt
A549 tox | nt | -3%
